Data published in patent US20250388584A1, “TPK AGONIST AND METHOD FOR TREATING NEURODEGENERATIVE DISEASES USING SAME” (SHANGHAI RAISING PHARMACEUTICAL CO., LTD., priority 2022, published 2025).
Where two headings read alike, the source gives them in different places.

Sequences of proteins named here, by UniProt entry; tags and fusion partners are left off. A change or cut given only in a name is not applied to a line headed by its entry.
UniProt Q9H3S4: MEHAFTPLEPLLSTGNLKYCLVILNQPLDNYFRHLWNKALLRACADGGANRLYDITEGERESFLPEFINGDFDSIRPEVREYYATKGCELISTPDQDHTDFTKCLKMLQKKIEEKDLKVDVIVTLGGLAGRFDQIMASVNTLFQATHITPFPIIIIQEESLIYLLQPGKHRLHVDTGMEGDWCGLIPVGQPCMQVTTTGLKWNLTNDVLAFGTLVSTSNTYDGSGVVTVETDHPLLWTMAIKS

Biological target: TPK enzyme (Homo sapiens (Human), UniProt Q9H3S4)
Experiment: TPK enzyme activity test
Assay type: biochemical
[1] = calculated with the effect of DMSO on TPK enzyme activity as 100%, read-out: Emax

Emax [1] [%]	SMILES	EC50 [µM]	Emax [%]
	O=C(CCn1cnc2c(sc3ccccc32)c1=O)N1CCN(c2cccc(C(F)(F)F)c2)CC1 [Compound 144, 3-(3-oxo-3-(4-(3-(trifluoromethyl)phenyl)piperazin-1-yl)propyl)benzo[4,5]thieno[3,2-d]pyrimidin-4(3H)-one]	1.96	161
173	Cc1ccc2[nH]c3c(=O)n(CCC(=O)N4CCC(Cc5ccc(F)cc5)CC4)cnc3c2c1 [Compound 164]		
154	Cc1ccc2ncc3c(=O)n(CCCC(=O)N4CCC(Cc5ccc(F)cc5)CC4)cnc3c2c1 [Compound 218, 3-(4-(4-(4-fluorobenzyl)piperidin-1-yl)-4-oxobutyl)-9-methylpyrimido[5,4-c]quinolin-4(3H)-one]		
173	Cc1ccc2c(c1)-c1ncn(CCC(=O)N3CCC(Cc4ccc(F)cc4)CC3)c(=O)c1CC2 [Compound 225, 3-(3-(4-(4-fluorobenzyl)piperidin-1-yl)-3-oxopropyl)-9-methyl-5,6-dihydrobenzo[h]quinazolin-4(3H)-one]		
